Consider 2 molecules from patent US10465009B2, “BCMA antigen binding proteins” (Amgen Inc., priority 2012, dated 2019).

Residue numbers refer to the chain shown, from its start. Entries after “also recorded” stand apart in the source; their conditions may differ.

For one assay, the target named is T1, BCMA (Homo sapiens, UniProt Q02223, N81S).
T1 construct: cells transiently transfected to express full length BCMA, TACI, or BAFF-R; expressed in transfected cells
T1 sequence (Q02223 1-184 N81S): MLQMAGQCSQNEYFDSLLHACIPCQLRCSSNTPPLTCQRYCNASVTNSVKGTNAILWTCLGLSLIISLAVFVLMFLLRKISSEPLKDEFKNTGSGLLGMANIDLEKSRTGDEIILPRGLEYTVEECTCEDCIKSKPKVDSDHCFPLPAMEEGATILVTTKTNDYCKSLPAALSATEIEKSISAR
Nature of the assay: FACS binding on cells transiently transfected to express full length BCMA. The following applies: MFI vs negative control. Here is the method:
An important criterion is exquisite selectivity for wild-type human BCMA expressed on the surface of cells. FACS binding on cells transiently transfected to express full length BCMA, TACI, or BAFF-R was performed using standard techniques. Approximately 40×10^6 of the transiently-transfected target cells were resuspended in a staining solution (2% goat serum, 1% rabbit serum, 0.02% azide in PBS) and aliquoted into round-bottom, 96-well plate (Corning Incorp., Acton, Mass.) as per the experiment design. The cells were incubated at 4 degrees celsius for 30 minutes to block non-specific sites. The antibodies were titrated into the staining solution. The cells were rinsed in a rinse solution (PBS+0.02% azide) by resuspending the cells in 200 ul/well. The cells were centrifuged at 1500 rpm at 4 degrees celsius for 7 minutes. The rinse solution was removed and the rinse step was repeated. The cells were resuspended in the appropriate antibody solution (see the matrix in TABLE 4) at 30 ul/well and incubated at 4 degrees celsius for 30 minutes. […] For the mouse IgG1 negative control and the two mouse antibodies (1.183 and 1.288), the secondary reagent was an anti-mouse IgG-PE conjugate (BD Pharmingen Cat. 550589). The cells/antibodies were rinsed as described above to remove excess/unbound antibody. […] Samples were read at 532 nm wavelength on FACS. […]
A general note: In flow cytometry, cells or beads pass a laser one at a time.

In a further assay the test system is MM1R myeloma cell line. Nature of the assay: Flow cytometry DM1 delivery assay (anti-DM1 antibody), MM1R. Format: cell-based, human. The text has this: The human myeloma tumor cell line MM1R, which expresses a relatively low level of BCMA, was used as a relative positive control to assess whether sufficient DM1 was delivered into the cell by 2A1CV5-MCC-DM1 to induce cell death.

In assay [1] the test system is H929 luciferase-labeled myeloma cells. Nature of the assay: H929-luc bone-tropic xenograft model (incl. serum human IgG FLC kappa ELISA). It is filed as in vivo, NSG mice. The following applies: for antitumor effect (hind limb bioluminescence): single IV treatment day 14, 250 ug DM1/kg (10 mg Ab/kg). Here is the method:
In short, H929 luciferase-labeled myeloma cells that express an average of approximately 24,000 BCMA sites per cell were administered intravenously (1×10^6 cells) into NSG mice. Fourteen days after tumor inoculation, tumor-bearing animals were randomized based on hind limb bioluminescence (tumor burden) into groups of ten animals each and dosed intravenously once. A blinded dosing study of 2A1CV5-MCC-DM1, unconjugated 2A1CV5 and control conjugate employing a single dose of 250 ug DM1/kg (10 mg Ab/kg) was performed in this established bone-tropic tumor model. No nutritional supplementation was provided.
• 1×10^6 cells H929-luc cells, IV • Mice distributed into equal groups determined by hind limb BLI, Day 14 • Single treatment of antibody at 10 mg/kg, I.V., Day 14 • BLI measured 2×/week (blinded) • Study endpoint day 35 • 80 NSG (NOD/SCID IL2Rg−/−) mice were injected intravenously on Jan. 13, 2011, 1×10^6 H929luc cells • BLI was measured twice per week • Day 14 mice were distributed into five equivalent groups (n=10) based on hind limb tumor burden, as measured by BLI • Treatment plan: one I.V. injection • Treatment groups blinded and include: • Vehicle (PBS) • Anti-huBCMA-huIgG1-2A1-CV5 (unconjugated) • Anti-huBCMA-huIgG1-2A1-CV5-MCC-DM1 • Anti-huBCMA-huIgG1-2A1-WT-MCC-DM1 • Anti Streptavadin-MCC-DM1 • Anti-huBCMA-2A1-CV5-MCC-DM1 used at 10 mpk • Anti-huBCMA-2A1-WT-MCC-DM1 and anti Streptavadin-MCC-DM1 were normalized based on maytansinoid drug equivalents of 2A1-CV5-MCC-DM1 at 10 mpk • Timing: injected H929luc cells, ADC treatment began on day 14, analysis on day 35
Human immunoglobulin molecules consist of two heavy chains which define class (IgG, IgA, IgM, IgD, IgE) and identical light chains (kappa or lambda). In healthy individuals the majority of light chains in serum exist bound to heavy chains. Free Light Chains (FLC) are a natural product of B lymphocytes and represent a unique biomarker of neoplastic and reactive B cell related disorders. Increased FLC are associated with various malignant plasma disorders. Detection of FLC is an important diagnostic aid for a variety of diseases including multiple myeloma, smoldering myeloma and monoclonal gammopathy of undetermined significance. Human IgG FLC kappa ELISA (Biovendor, RD 194088100R-K) was used to analyze presence of FLC in sera from H929 xenografts. Kappa light chain antibodies were not detected in sera of mice 18 days after being treated with 2A1CV5-MCC-DM1, but were detected in sera of mice receiving vehicle (PBS) or isotype control conjugate (anti-Streptavidin-MCC-DM1) (see FIGS. 38 and 39).

B1: 2A1: parental fully human anti-huBCMA mAb, Vh SEQ ID NO:214, Vl SEQ ID NO:248; heavy chain SEQ ID NO:287, light chain 288 (antibody)
heavy: EVQLVESGGGLVKPGRSLRLSCTASGFTFGDYALSWFRQAPGKGLEWVGVSRSKAYGGTTDYAASVKGRFTISRDDSKSFAYLQMNSLKTEDTAVYYCCSSGYSSGWTPFDYWGQGTLVTVSSASTKGPSVFPLAPSSKSTSGGTAALGCLVKDYFPEPVTVSWNSGALTSGVHTFPAVLQSSGLYSLSSVVTVPSSSLGTQTYICNVNHKPSNTKVDKKV[omitted - human IgG1 Fc]
light: QSVLTQPPSASGTPGQRVTISCSGSSSNIGSNTVNWYQQLPGTAPKLLIFNYHQRPSGVPDRFSGSKSGSSASLAISGLQSEDEADYYCAAWDDSLNGWVFGGGTELTVLGQPKAAPSVTLFPPSSEELQANKATLVCLISDFYPGAVTVAWKADSSPVKAGVETTTPSKQSNNKYAASSYLSLTPEQWKSHRSYSCQVTHEGSTVEKTVAPTECS
B1: in the assay with BCMA, the “BCMA (FACS binding)” value is recorded as “+ (A sample was considered positive for binding if the MFI was two times the negative control value)”.

B2: 2A1CV5-MCC-DM1 (conjugate)
heavy: B1 heavy with R16G, T23A, F80T, C99A
light: B1 light with E106K
Turning to B2, the “delivery of DM1 into MM1R cells” value in the assay with MM1R myeloma cell line is “delivered DM1”. In assay [1] (sera of mice 18 days after treatment), the “human kappa free light chain in sera (ELISA)” value is given as “not detected; also recorded: not in sera”. In addition, in assay [1] (single IV treatment day 14), the lytic bone lesions entry is “not observed”. Further, the “antitumor effect (hind limb bioluminescence)” value in assay [1] is “complete tumor regression”; in assay [1] (listed as Ab-1 ADC) it was “Complete tumor regression”.
